The experiment has as its target Heat shock protein HSP 90-beta (Homo sapiens, UniProt P08238). In words: Inhibition of human Hsp90 ATPase activity assessed as inhibition of ATP hydrolysis after 60 mins by fluorimetric analysis.

Amino acid sequences for entries named in this document (tags omitted).
UniProt P08238, whole entry: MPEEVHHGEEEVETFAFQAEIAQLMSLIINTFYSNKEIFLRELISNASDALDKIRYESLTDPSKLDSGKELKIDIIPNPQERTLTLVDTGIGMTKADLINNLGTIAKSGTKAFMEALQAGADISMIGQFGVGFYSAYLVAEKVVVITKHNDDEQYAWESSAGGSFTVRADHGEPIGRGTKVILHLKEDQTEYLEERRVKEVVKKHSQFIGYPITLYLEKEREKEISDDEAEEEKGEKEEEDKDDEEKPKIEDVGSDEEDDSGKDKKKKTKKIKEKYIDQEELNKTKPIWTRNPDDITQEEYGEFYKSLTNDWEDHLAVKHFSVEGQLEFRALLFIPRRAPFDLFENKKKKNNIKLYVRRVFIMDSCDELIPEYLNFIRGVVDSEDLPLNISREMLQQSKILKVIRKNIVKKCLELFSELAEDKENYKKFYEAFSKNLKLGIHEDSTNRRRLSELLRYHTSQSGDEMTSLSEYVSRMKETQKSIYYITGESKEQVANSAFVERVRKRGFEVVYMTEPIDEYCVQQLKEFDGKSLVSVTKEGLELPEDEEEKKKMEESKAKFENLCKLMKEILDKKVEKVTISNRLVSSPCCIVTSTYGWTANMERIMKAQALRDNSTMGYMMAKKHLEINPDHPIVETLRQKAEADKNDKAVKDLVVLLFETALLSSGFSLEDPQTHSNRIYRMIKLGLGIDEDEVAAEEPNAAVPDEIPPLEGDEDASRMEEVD

Activity calls are given as the source filed them. The rule behind the calls is not given here.

On to `c1ccc2c(Cn3cc(-c4ccc(-c5cn(Cc6cccc7ccccc67)nn5)cc4)nn3)cccc2c1`, for which the inhibition entry is “inactive”.

Source of the values: ChEMBL document CHEMBL2412974, “Dimeric and trimeric triazole based molecules as a new class of Hsp90 molecular chaperone inhibitors” (Eur J Med Chem, 2013).
